The source of these data is patent US20110092524A1, “Agent for Enhancing Corneal Epithelial Barrier Function” (SANTEN PHARMACEUTICAL CO., LTD., priority 2008, published 2011).

This experiment has as its system SV40-immortalized human corneal epithelial cells (HCE-T). The experiment in a line: Enhancing effect of PPARγ agonist on barrier function (membrane electrical resistance of corneal epithelial cell layer). Format: cell-based. To be noted: sample 10 μM, five days after seeding, average of four experiments, base culture 296.0. On the procedure: The PPARγ agonist was evaluated with respect to the enhancing effect on the barrier function of a corneal epithelial cell. For the corneal epithelial cell, an SV40-immortalized human corneal epithelial cell line was used, utilizing a membrane electrical resistance as an index of the barrier function. When the bather function of the corneal epithelial cell is enhanced, the membrane electrical resistance increases, while the bather function is reduced, the membrane electrical resistance decreases.
From RIKEN BioResource Center, SV40-immortalized human corneal epithelial cells (HCE-T) were obtained. […] As the culture medium, a DMEM/Ham's F12 (Nacalai Tesque, Inc.) containing 15% fetal bovine serum (ICN) and 40 μg/mL of gentamicin (Gibco) was used. […] The concentration mentioned above was attained by dissolving each sample in DMSO and diluting 1,000-fold with the culture medium. In addition, a culture medium containing DMSO alone was used as a base culture medium.
Five days after the seeding, an electrical resistance of an epithelial cell layer was measured using a membrane electrical resistance measurement system (World Precision Instruments). A well containing the base medium alone with no corneal epithelial cell seeded was measured as a blank, and the value was subtracted from the electrical resistance of the epithelial cell layer. […]

Take `C/C(=C/C(=O)c1ccccc1)N[C@@H](Cc1ccc(OCCc2nc(-c3ccccc3)oc2C)cc1)C(=O)O` [GW-544, N-[1-methyl-3-oxo-3-phenyl-1(Z)-propenyl]-O-[2-(5-methyl-2-phenyloxazol-4-yl)ethyl]-L-tyrosine]: the Membrane electrical resistance was 435.3 Ω · cm^2.
